Measurements published in patent US8778966B2, “Quinolinone derivatives as PARP and tank inhibitors” (Janssen Pharmaceutica, NV, priority 2007, dated 2014).

Test system: HCT116 cells
Test: Mitotic arrest assay on HCT116 cells (phospho-histone H3 Ser10)
Settings: lowest active dose
Text: Phosphorylation of histone H3 is tightly correlated with chromosome condensation during both mitosis and meiosis. The assay is a cellular immunosorbent assay wherein the sole antibody is labelled with a detectable conjugate. The phospho-histone H3 (ser10) antibody detects endogenous levels of histone H3 only when phosphorylated at serine 10. […] In parallel with antibody detection, the nuclei of the cells are stained with Hoechst 33342 for cell-counting. Cells are detected and analysed using the InCell Analyzer 1000 from GE Healthcare. Since both the antibody-detection as well as the Hoechst-staining are in the nucleus, the dual area object intensity algorithm is used for analysing the wells.
All compounds tested were dissolved in DMSO and further dilutions were made in culture medium. Final DMSO concentrations never exceeded 0.1% (v/v). […]
A 1/2000 dilution of Hoechtst 33342 (10 mg/ml, supplier: Invitrogen) was made and 100 μl/well was added for at least 30 minutes before acquiring images. The absorbance at dual wavelengths of 360/480 nm was measured using the InCell Analyzer 1000 from GE Healthcare and the results were then analyzed.
For each experiment, controls (containing no drug) and a blank incubation (containing no cells or drugs) were run in parallel. […] Herein the effects of test compounds are expressed as the lowest dose giving a sigma value of >5 (LAD) (see table F-2).

CCc1cc2ccc(C(C)(C#N)Cc3cccc([N+](=O)[O-])c3)cc2[nH]c1=O (stereo not shown)
Mitotic arrest HCT116 LAD: 7 M
